Patent publication US20180291285A1 (Clariant International, Ltd., priority 2015, published 2018)

Conditions: 28 d
Excerpt: As mentioned before. The environmental acceptability of these esterquat surfactant compounds is of essential importance for emulsion breaking operations in oil production processes.

For “Dioleic acid triethanolamine esterquat [Di-oleic acid triethanolamine esterquat]”, the “biodegradation OECD 306” value was 67%.
